Consider one sequence from patent US12037368B2, “Antimicrobial type-II bacteriocins” (priority 2017, dated 2024).

The assay relates to Staphylococcus aureus (ISP 479C, ISP 479R). In words: Radial diffusion antimicrobial assay, S. aureus. The settings on record: pH 5.5 (phagolysosomal/wound septic buffer), compared with pH 7.5. Type of assay: cell-based. As to the method: Antimicrobial assays were performed using a well-established radial diffusion method modified to pH 5.5 or 7.5. A panel of microorganisms was tested: Gram-positive Staphylococcus aureus (ISP 479C, ISP 479R); Gram-negative Salmonella typhimurium (MS 5996s, MS 14028), Pseudomonas aeruginosa (PA01), Acinetobacter baumanni (17928) and the fungus Candida albicans (36082S, 36082R). Logarithmic phase organisms were inoculated (10^6 CFU/ml) into buffered agarose, and poured into plates. Peptides (10 μg) were introduced into wells in the seeded matrix, and incubated for 3 h at 37° C. Nutrient overlay medium was applied, and assays incubated at 37° C. or 30° C. for bacteria or fungi, respectively. After 24 h, zones of inhibition were measured. Independent experiments were repeated a minimum of two times.

For “KTIATNATYYPNKWAKSAGKWIASKIK [Peptide 3, synthesized putative bacteriocin from B3ZXE9, Bacillus cereus]”, the “activity against Gram positive S. aureus at pH 5.5” value is reported as “lost nearly all of its activity”.
